Test results: US6696468B2, “(S)-4-AMINO-5-CHLORO-2-METHOXY-N-[1-[1-(2-TETRAHYDROFURYL-CARBONYL)-4-[…]]-4-[…]]BENZAMIDE, PROCESS FOR THE PREPARATION THEREOF, PHARMACEUTICAL COMPOSITION CONTAINING THE SAME, AND INTERMEDIATE THEREFOR” (priority 2002, dated 2004)

Amino acid sequences for entries named in this document (tags omitted).
UniProt P61169, whole entry: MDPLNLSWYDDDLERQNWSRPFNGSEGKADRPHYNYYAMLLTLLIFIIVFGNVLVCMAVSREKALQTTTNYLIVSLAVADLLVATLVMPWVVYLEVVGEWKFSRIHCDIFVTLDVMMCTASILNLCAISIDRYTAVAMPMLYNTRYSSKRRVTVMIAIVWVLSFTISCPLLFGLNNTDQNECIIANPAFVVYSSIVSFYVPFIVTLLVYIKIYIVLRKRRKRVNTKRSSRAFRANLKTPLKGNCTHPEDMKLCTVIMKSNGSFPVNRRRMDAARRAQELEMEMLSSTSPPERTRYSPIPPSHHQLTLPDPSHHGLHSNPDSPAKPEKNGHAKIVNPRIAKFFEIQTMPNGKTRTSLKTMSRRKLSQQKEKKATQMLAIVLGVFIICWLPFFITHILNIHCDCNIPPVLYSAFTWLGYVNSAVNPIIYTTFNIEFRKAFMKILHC

Target: T1, Dopamine D2 receptor (Rattus norvegicus, UniProt P61169)
T1 construct: Crude synaptosome membrane fractions from rat brain was used as a receptor membrane fraction; from tissue; host or cells: rat brain crude synaptosome membrane fraction
Assay: Dopamine D2 receptor binding assay ([3H]spiperone)
Conditions: rat brain crude synaptosome membrane fractions
Procedure: Dopamine D2 receptor binding assay and the preparation of receptor membrane fractions therefor were carried out according to a modified method of the method of Creese, I. et al., Eur. J. Pharmacol., 46, 337 (1977) and Peroutka, S. J. and Hamik, A., Eur. J. Pharmacol., 148, 297 (1988).
Crude synaptosome membrane fractions from rat brain was used as a receptor membrane fraction, and [^3H]spiperone (D2) was used as a labeled ligand. A buffer (final volume: 1 ml) containing a receptor membrane fraction and a labelled ligand therefor was incubated for a prescribed period in the presence of a test compound in various concentrations, and the radioactive ligand binding to the receptor was separated on the filter paper using a cell harvester (manufactured by Brandel). The radioactivity on the filter was determined by a liquid scintillation counter, and the total binding of the ligand to the receptor was determined. On the other hand, the non-specific binding was determined in the presence of an excess amount of non-labeled ligand (spiperone (D2)), and the specific binding was obtained by subtracting the non-specific binding from the total binding. The concentration of the test compound causing 50% inhibition of specific binding of the labeled ligand (lC50 value) was determined by probit method.

Row | Compound | IC50
1 | COc1cc(N)c(Cl)cc1C(=O)N[C@H]1CCN(CCCOc2ccc(F)cc2)C[C@H]1OC (relative stereo) [Cisapride, cis-4-amino-5-chloro-N-[1-[3-(4-fluorophenoxy)propyl]-3-methoxy-4-piperidinyl]-2-methoxybenzamide] | 390 nM
2 | CCN(CC)CCNC(=O)c1cc(Cl)c(N)cc1OC [Metoclopramide, 4-amino-5-chloro-N-[2-(diethylamino)ethyl]-2-methoxybenzamide] | 480 nM
